Assay results: patent US20250345383A1, “INTRANASAL ADMINISTRATION OF POLYSULFIDE” (The General Hospital Corporation, priority 2022, published 2025)

Test system: mice subjected to SCI
Assay: Mouse model of spinal cord ischemia (SCI): delayed paraplegia, hindlimb motor function by Basso mouse scale (BMS)
Conditions: in vivo

Question: For `CC(C)(CO)[C@@H](O)C(=O)NCCC(=O)NCCSSCCNC(=O)CCNC(=O)[C@H](O)C(C)(C)CO` [PTN, pantethine, reference compound], which “male mice rescued from delayed paraplegia” value is on record?
Answer: The value was “did not rescue any male mouse”.
